Here are results for three compounds from ChEMBL document CHEMBL5247575 (J Med Chem, 2018).

Assay [1] can be described thus: Inhibition of bacteria OXA-23 assessed as apparent inhibition constant using nitrocefin as substrate.
The nature of assay [2]: Inhibition of bacteria OXA-23/40 assessed as apparent inhibition constant using nitrocefin as substrate.
Assay [3] in a line: Inhibition of bacteria OXA-48 assessed as apparent inhibition constant using nitrocefin as substrate.

Turning to `O=C(NNC(=O)[C@@H]1CC[C@@H]2CN1C(=O)N2OS(=O)(=O)O)[C@@H]1CCNC1`, the Ki in assay [1], in assay [2] and in assay [3] was over 100 µM each time.

On to `NC(=O)[C@@H]1CC[C@@H]2CN1C(=O)N2OS(=O)(=O)[O-].[Na+]` [AVIBACTAM SODIUM], for which the Ki in assay [1] and in assay [2] was over 100 µM in each case.

As to `O=C(NNC(=O)[C@@H]1CC[C@@H]2CN1C(=O)N2OS(=O)(=O)O)[C@@H]1CCCNC1` [ZIDEBACTAM], the Ki in assay [1], in assay [2] and in assay [3] was over 100 µM each time.
